Experiment [1] has as its target ALK tyrosine kinase receptor (Homo sapiens, UniProt Q9UM73). Nature of the experiment: 2.5 uL-4x Test Compound or 100 nL 100x plus 2.4 uL kinase buffer; 2. 5 uL-2x Peptide/Kinase Mixture; 3. 2.5 uL-4xATP Solution; 4. 30-second plate shake; 5. 60-minute Kinase Reaction incubation at room temperature; 6. 5 uL-Development Reagent Solution; 7. 30-second plate shake; 8. 60-minute Development Reaction incubation at room temperature; 9. […] After the 1 hour Kinase Reaction incubation, 5 uL of a 1:256 dilution of Development Reagent B is added.

Protein sequences, listed by entry. Tags and fused reporters are not part of them. Lines headed by an entry give the natural chain unless they say otherwise; changes in a name come on top.
UniProt Q9UM73: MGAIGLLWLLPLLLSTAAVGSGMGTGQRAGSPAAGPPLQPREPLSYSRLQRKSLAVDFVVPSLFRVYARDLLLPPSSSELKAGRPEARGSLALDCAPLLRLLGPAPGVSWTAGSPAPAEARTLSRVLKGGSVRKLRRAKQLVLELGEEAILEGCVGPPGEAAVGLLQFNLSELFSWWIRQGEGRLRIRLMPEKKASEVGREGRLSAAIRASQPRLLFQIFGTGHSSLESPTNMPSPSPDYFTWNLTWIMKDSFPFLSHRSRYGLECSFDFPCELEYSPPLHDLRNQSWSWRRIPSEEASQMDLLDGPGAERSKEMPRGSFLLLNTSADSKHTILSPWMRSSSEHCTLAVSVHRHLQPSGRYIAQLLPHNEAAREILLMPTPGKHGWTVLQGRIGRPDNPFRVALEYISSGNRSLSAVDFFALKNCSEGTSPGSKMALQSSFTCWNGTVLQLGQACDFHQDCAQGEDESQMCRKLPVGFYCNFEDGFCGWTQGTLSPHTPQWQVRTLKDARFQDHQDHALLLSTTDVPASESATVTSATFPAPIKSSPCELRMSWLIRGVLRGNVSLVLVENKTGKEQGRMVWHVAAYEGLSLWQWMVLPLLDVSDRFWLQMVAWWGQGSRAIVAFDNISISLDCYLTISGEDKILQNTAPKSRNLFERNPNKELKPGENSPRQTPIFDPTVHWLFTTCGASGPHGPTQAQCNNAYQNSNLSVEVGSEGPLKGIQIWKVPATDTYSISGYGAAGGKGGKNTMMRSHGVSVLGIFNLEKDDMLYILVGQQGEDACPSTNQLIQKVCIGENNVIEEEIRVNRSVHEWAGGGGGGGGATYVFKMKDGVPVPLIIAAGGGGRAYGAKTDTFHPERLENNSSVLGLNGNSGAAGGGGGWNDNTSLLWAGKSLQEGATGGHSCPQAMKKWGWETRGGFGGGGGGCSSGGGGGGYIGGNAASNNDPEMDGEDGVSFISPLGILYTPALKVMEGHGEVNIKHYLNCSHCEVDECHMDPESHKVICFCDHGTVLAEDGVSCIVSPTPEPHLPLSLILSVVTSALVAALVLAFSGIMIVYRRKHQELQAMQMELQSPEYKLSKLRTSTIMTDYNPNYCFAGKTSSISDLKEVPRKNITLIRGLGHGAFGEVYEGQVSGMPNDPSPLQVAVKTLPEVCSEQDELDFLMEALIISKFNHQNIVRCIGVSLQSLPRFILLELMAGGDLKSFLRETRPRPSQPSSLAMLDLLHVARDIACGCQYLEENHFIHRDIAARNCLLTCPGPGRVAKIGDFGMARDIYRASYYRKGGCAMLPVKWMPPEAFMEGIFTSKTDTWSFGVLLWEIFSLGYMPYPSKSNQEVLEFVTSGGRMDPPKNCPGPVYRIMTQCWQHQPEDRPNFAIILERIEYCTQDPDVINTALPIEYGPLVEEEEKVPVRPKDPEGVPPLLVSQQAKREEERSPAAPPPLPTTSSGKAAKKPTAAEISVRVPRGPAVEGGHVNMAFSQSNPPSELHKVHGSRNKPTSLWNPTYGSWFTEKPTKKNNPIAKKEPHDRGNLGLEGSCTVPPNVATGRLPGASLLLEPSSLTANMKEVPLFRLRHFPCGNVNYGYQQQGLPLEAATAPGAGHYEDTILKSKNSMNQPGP
UniProt P00533, whole entry: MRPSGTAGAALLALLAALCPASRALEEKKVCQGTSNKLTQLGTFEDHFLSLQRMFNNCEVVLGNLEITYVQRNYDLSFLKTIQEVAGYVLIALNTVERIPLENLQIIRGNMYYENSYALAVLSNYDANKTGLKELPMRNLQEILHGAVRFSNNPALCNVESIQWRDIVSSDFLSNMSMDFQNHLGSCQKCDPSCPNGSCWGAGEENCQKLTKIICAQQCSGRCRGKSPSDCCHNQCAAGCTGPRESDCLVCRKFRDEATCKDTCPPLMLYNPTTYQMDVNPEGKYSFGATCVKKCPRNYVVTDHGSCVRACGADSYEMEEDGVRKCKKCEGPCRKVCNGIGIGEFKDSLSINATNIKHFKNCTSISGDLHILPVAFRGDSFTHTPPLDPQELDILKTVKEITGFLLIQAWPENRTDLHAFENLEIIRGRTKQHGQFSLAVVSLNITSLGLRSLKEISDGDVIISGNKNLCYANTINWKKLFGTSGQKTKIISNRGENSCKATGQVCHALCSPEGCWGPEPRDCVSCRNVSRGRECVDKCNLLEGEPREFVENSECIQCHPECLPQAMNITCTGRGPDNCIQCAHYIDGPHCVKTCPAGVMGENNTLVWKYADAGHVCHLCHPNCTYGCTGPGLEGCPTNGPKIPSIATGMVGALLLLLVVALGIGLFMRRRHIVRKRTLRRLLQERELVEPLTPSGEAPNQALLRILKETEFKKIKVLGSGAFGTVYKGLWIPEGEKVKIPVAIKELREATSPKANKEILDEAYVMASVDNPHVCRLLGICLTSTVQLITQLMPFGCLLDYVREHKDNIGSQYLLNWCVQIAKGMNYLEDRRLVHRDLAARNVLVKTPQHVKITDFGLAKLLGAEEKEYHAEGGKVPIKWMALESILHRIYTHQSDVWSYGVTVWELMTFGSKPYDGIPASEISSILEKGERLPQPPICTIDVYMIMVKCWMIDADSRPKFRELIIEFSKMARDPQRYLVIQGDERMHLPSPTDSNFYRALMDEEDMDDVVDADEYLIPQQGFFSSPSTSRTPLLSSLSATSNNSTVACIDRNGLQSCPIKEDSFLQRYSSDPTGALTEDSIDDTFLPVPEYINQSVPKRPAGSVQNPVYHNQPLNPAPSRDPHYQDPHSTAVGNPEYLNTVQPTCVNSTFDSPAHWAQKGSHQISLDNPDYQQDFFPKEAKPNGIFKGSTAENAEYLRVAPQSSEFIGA

In experiment [2] the target is Epidermal growth factor receptor (Homo sapiens, UniProt P00533).

The structures appear in SMILES notation.

In ChEMBL document CHEMBL5726454, “Protein tyrosine kinase modulators and methods of use” (2017) one finds IC50 data, which are given here for two compounds.

As usually defined, the IC50 is the point on the concentration scale where inhibition reaches its midpoint.

`C=CC(=O)Nc1cc(Nc2ncc(Cl)c(Nc3ccccc3C(=O)C(=O)N(C)C)n2)ccc1OCCN(C)C`: the IC50 in experiment [1] turned out to be 8.62 nM. Regarding `C=CC(=O)Nc1cc(Nc2ncc(Cl)c(Nc3ccccc3C(=O)C(=O)N(C)C)n2)c(OC)cc1N1CCN(C)CC1`, the IC50 in experiment [1] is 9.33 nM; in experiment [2], 513 nM.
